{
  "sequences": {"note": "Protein sequences, listed by entry. Tags and fused reporters are not part of them.", "UniProt P08659, whole entry": "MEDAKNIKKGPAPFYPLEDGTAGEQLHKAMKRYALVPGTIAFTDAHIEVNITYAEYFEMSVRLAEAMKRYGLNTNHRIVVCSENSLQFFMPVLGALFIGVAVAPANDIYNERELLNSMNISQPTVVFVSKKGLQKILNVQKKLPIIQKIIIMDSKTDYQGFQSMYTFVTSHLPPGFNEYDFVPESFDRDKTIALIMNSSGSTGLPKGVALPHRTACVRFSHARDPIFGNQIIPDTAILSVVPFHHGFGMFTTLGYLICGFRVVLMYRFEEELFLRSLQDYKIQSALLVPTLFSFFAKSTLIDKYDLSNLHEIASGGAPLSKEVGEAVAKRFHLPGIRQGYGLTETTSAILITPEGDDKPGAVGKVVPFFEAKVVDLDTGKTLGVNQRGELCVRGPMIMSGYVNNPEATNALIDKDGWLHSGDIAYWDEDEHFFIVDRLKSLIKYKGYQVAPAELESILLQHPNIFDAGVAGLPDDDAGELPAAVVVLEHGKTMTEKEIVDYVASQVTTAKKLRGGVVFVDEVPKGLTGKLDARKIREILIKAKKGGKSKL"},
  "source": "patent US11913033B2",
  "about": "“Luciferases and methods for using same” (LIGHT BIO, INC., priority 2017, dated 2024)",
  "origin": "cited, not measured here",
  "target": "Luciferase from Photinus pyralis (Photinus pyralis, UniProt P08659)",
  "conditions": "cited from earlier work",
  "data": [
    {"smiles": "O=C(O)[C@@H]1CSC(c2nc3ccc(O)cc3s2)=N1", "note": "[L-luciferin]", "values": [
      {"measurement": "inhibition of the D-luciferin reaction", "setting": "Lembert 1996", "result": "strong competitive inhibitor"}
    ]},
    {"smiles": "O=C(O)[C@H]1CSC(c2nc3ccc(O)cc3s2)=N1", "note": "[D-luciferin]", "values": [
      {"measurement": "quantum efficiency of the reaction", "setting": "Seliger and McElroy 1960", "result": "0.88+−0.25"}
    ]}
  ]
}
